From ChEMBL document CHEMBL4725438, “Chiral Analogues of PFI-1 as BET Inhibitors and Their Functional Role in Myeloid Malignancies” (ACS Med Chem Lett, 2020)
The source made the active and inactive calls. The calls are words filed in the database; no cut-off is given here.

Experiments:
[1] = target: Bromodomain-containing protein 4 (Homo sapiens) (UniProt O60885); test: Binding affinity to N-terminal His-tagged human recombinant BRD4 bromodomain 1 (44-170 residues) expressed in Escherichia coli assessed as change in melting temperature at 10 uM by BromoMELT assay
[2] = target: Bromodomain-containing protein 4 (Homo sapiens) (UniProt O60885); test: Inhibition of BRD4 in human MOLM-14 cells harboring FLT3-ITD mutant assessed as cell cycle arrest by measuring decrease in cell population at S phase at 1 to 5 uM measured after 24 hrs by propidium iodide staining based FACS analysis; conditions: dose microM 1-5, time 24.0 hrs
[3] = target: Bromodomain-containing protein 4 (Homo sapiens) (UniProt O60885); test: Inhibition of BRD4 in human MOLM-14 cells harboring FLT3-ITD mutant assessed as reduction in cell proliferation at 1 to 5 uM after 72 hrs by tryphan blue staining based assay; conditions: dose microM 1-5, time 72.0 hrs
[4] = target: Bromodomain-containing protein 4 (Homo sapiens) (UniProt O60885); test: Inhibition of BRD4 in human MOLM-14 cells harboring FLT3-ITD mutant assessed as cell viability at 5 uM measured after 72 hrs by tryphan blue staining based assay relative to control
[5] = target: Bromodomain-containing protein 4 (Homo sapiens) (UniProt O60885); test: Inhibition of BRD4 in human HEL cells harboring JAK2 V617F mutant assessed as cell cycle arrest by measuring decrease in cell population at S phase at 1 to 5 uM measured after 24 hrs by propidium iodide staining based FACS analysis; conditions: dose microM 1-5, time 24.0 hrs
[6] = target: Bromodomain-containing protein 4 (Homo sapiens) (UniProt O60885); test: Inhibition of BRD4 in human MOLM-14 cells harboring FLT3-ITD mutant assessed as cell cycle arrest by measuring increase in cell population at sub-G1 phase at 1 to 5 uM measured after 24 hrs by propidium iodide staining based FACS analysis; conditions: dose microM 1-5, time 24.0 hrs
[7] = target: Bromodomain-containing protein 4 (Homo sapiens) (UniProt O60885); test: Inhibition of BRD4 in human MOLM-14 cells harboring FLT3-ITD mutant assessed as metabolic activity at 1 uM measured after 72 hrs by MTT assay relative to control; type: cell-based; parameters: scale not given: the % may be the effect or the level left
[8] = target: Bromodomain-containing protein 4 (Homo sapiens) (UniProt O60885); test: Inhibition of BRD4 in human HEL cells harboring JAK2 V617F mutant assessed as cell cycle arrest by measuring increase in cell population at sub-G1 phase at 1 to 5 uM measured after 24 hrs by propidium iodide staining based FACS analysis; conditions: dose microM 1-5, time 24.0 hrs
[9] = target: Bromodomain-containing protein 4 (Homo sapiens) (UniProt O60885); test: Inhibition of BRD4 in human HEL cells harboring JAK2 V617F mutant assessed as cell cycle arrest by measuring increase in cell population at G0/G1 phase at 1 to 5 uM measured after 24 hrs by propidium iodide staining based FACS analysis; conditions: dose microM 1-5, time 24.0 hrs
[10] = target: Bromodomain-containing protein 4 (Homo sapiens) (UniProt O60885); test: Inhibition of BRD4 in human HEL cells harboring JAK2 V617F mutant assessed as reduction in cell proliferation at 1 to 5 uM after 72 hrs by tryphan blue staining based assay; conditions: dose microM 1-5, time 72.0 hrs
[11] = target: Bromodomain-containing protein 4 (Homo sapiens) (UniProt O60885); test: Inhibition of BRD4 in human MOLM-14 cells harboring FLT3-ITD mutant assessed as cell cycle arrest by measuring increase in cell population at G0/G1 phase at 1 to 5 uM measured after 24 hrs by propidium iodide staining based FACS analysis; conditions: dose microM 1-5, time 24.0 hrs
[12] = target: Bromodomain-containing protein 4 (Homo sapiens) (UniProt O60885); test: Inhibition of BRD4 in human HEL cells harboring JAK2 V617F mutant assessed as cell viability at 5 uM measured after 72 hrs by tryphan blue staining based assay relative to control
[13] = target: Bromodomain-containing protein 4 (Homo sapiens) (UniProt O60885); test: Inhibition of BRD4 in human HEL cells harboring JAK2 V617F mutant assessed as metabolic activity at 1 uM measured after 72 hrs by MTT assay relative to control; type: cell-based; parameters: scale not given: the % may be the effect or the level left

ΔTm [1]: 5 °C | inhibition [2]: Active | inhibition [3]: Active | inhibition [5]: Active | inhibition [6]: Active | Activity [7]: 80% | inhibition [8]: Active | inhibition [9]: Active | inhibition [10]: Active | inhibition [11]: Active | Activity [13]: 73%
SMILES: COc1ccccc1S(=O)(=O)Nc1ccc2c(c1)CN(C)C(=O)N2
Activity [4]: 85% | Activity [12]: 85%
